Read-outs that look alike come from different tables or passages of the source.
Key:
[1] = set-up: species or system rabbits; conditions: rabbit, in vivo
From the text: (§1) The three preparations were named: The volume of distribution [Vd] and complete pharmacokinetic profiles for the elimination of these three materials was studied in healthy and mature rabbits, healthy and anaesthetised new-born piglets and anaesthetised new-born piglets with an acute septicaemia induced by administration of Escherichia Coli. The effect of the original dose on kinetic parameters for Elohaes™ and hmw-Elohaes™ was examined in mature rabbits only. The Rowland two-compartment open model was used, with the central compartment being plasma and the peripheral compartment being interstitial water. Elimination was considered to occur from a part of this peripheral compartment. This model is expressed diagrammatically in FIG. 1. […] The rate constant k3 is the proportion of material, in interstitial water, being irreversibly eliminated. The parameters of this model, are related to the bi-exponential mathematical model described earlier by: [formula]

[2] = set-up: species or system piglets; conditions: in vivo
From the text: as §1, with “[formula] […] This ratio can be estimated from [(C0-C60)/C60] where C60 is the concentration after 60 minutes and C0 is the concentration at zero time. The following Table 21 summarises the information from piglets according to these three principles.” for “[formula]”

[3] = rabbit, in vivo

Fluorescein Isotuiocyanate (FITC) Labelled Hydroxyethyl Starch (HES) [FITC-Elohaes]
Vd [1]: 59.5 ± 1.20
k1 [1]: 0.0157 min⁻¹
k1/k2 [1]: 1.32
k2 [1]: 0.0133 min⁻¹
Vd & SEM ([1]; 0.15 mg/kg): 0.0604 ± 0.0018 L/kg
k1 ([1]; 0.15 mg/kg): 0.0163 min⁻¹
k2 ([1]; 0.15 mg/kg): 0.0140 min⁻¹
k3 ([1]; 0.15 mg/kg): 0.00128 min⁻¹
Vd & SEM ([1]; 0.56 mg/kg): 0.0521 ± 0.0018 L/kg
k1 ([1]; 0.56 mg/kg): 0.0122 min⁻¹
k2 ([1]; 0.56 mg/kg): 0.0085 min⁻¹
k3 ([1]; 0.56 mg/kg): 0.0009 min⁻¹
Vd & SEM ([1]; 1.95 mg/kg): 0.0467 ± 0.0025 L/kg
k1 ([1]; 1.95 mg/kg): 0.0199 min⁻¹
k2 ([1]; 1.95 mg/kg): 0.096 min⁻¹
k3 ([1]; 1.95 mg/kg): 0.00124 min⁻¹
Vd & SEM ([1]; 16.6 mg/kg): 0.041 ± 0.003 L/kg
k1 ([1]; 16.63 mg/kg): 0.0145 min⁻¹
k2 ([1]; 16.63 mg/kg): 0.0107 min⁻¹
k3 ([1]; 16.63 mg/kg): 0.0012 min⁻¹
k1 [2]: 0.029 min⁻¹
k1/k2 [2]: 1.12
k2 [2]: 0.026 min⁻¹
k3 [2]: 0.0046 min⁻¹
k3 ([2]; 1 mg/kg): 0.0046 min⁻¹
volume of distribution [3]: 0.0445 L/kg

— patent US6355624B1, “Measurement of plasma volume” (University Wales College of Medicine, priority 1997, dated 2002)
